Assays:
[1] = Stability of the compound in acetone assessed as hydrolysis at 66 degC after 30 mins; conditions: 0.5 h
L1210 = assay: Antitumor activity against mouse L1210 cells assessed as dose required to produce T/C of 125% administered for 15 days
W256 = assay: Antitumor activity against rat Walker 256 cells allografted in rat; type: functional
P388 [2] = assay: Antitumor activity against mouse P388 cells allografted in mouse assessed as dose required to produce T/C of 180% administered for 10 days
P388 [3] = assay: Antitumor activity against mouse P388 cells allografted in mouse assessed as dose required to produce T/C of 125% administered for 10 days
P388 [4] = assay: Antitumor activity against mouse P388 cells allografted in mouse assessed as dose required to produce T/C of 125% administered for 9 days
P388 [5] = assay: Antitumor activity against mouse P388 cells allografted in mouse assessed as dose required to produce T/C of 180% administered for 9 days

SMILES	log(%) [1]	other results
COc1ccc(N(CCCl)CCCl)cc1	1.76	log(1/C) (L1210): 4.28
BrCCN(CCBr)c1ccc(-c2ccccc2)cc1	1.85	
ClCCN(CCCl)c1ccccc1-c1ccccc1	1.49	
Oc1ccc(N(CCBr)CCBr)cc1		log1/CED90 (W256): 5
NC(=O)c1ccc(N(CCCl)CCCl)cc1	0	log1/CED90 (W256): 2.92
Cc1ccccc1N(CCCl)CCCl	1.92	
Nc1ccc(N(CCCl)CCCl)cc1	2	
ClCCN(CCCl)c1ccc(Cl)cc1	0.95	
CC(=O)Sc1ccc(N(CCBr)CCBr)cc1	1.41	log1/CED90 (W256): 4.09
ICCN(CCI)c1ccccc1		log1/CED90 (W256): 4.08
CCOC(=O)c1ccc(N(CCCl)CCCl)cc1	0.18	
O=C(O)c1ccc(N(CCBr)CCBr)cc1		log1/CED90 (W256): 4.18
COc1ccc(N(CCBr)CCBr)cc1	1.99	
Cc1ccc(N(CCCl)CCCl)cc1	1.58	
CC(=O)Nc1ccc(N(CCI)CCI)cc1		log1/CED90 (W256): 4.3
ClCCN(CCCl)c1ccc(Br)cc1	0.78	log K [1]: -4.46
BrCCN(CCBr)c1ccccc1-c1ccccc1	1.97	
NC(Cc1cccc(N(CCCl)CCCl)c1)C(=O)O (stereo not given)		log(1/C) (P388 [2]): 5.39; log(1/C) (P388 [3]): 6.09; log(1/C) (L1210): 5.71
CC(=O)Nc1ccc(N(CCCl)CCCl)cc1	1.62	log K [1]: -3.52; log1/CED90 (W256): 4.46
ClCCN(CCCl)c1ccccc1	1.3	
BrCCN(CCBr)c1ccc2ccccc2c1	1.9	
CCOC(=O)CCc1ccc(N(CCCl)CCCl)cc1	1.32	log K [1]: -3.88
CC(=O)Sc1ccc(N(CCCl)CCCl)cc1	0.48	log1/CED90 (W256): 3.42
COc1ccccc1N(CCCl)CCCl	1.95	

SMILES	log(%) [1]	other results
NC(=O)Sc1ccc(N(CCBr)CCBr)cc1	1.6	
ClCCN(CCCl)c1cccc2ccccc12	1.7	
BrCCN(CCBr)c1ccccc1	1.9	log1/CED90 (W256): 4.3
Sc1ccc(N(CCBr)CCBr)cc1	1.85	
CCOC(=O)Cc1ccc(N(CCCl)CCCl)cc1	1.19	log K [1]: -4.04
NS(=O)(=O)c1ccc(N(CCCl)CCCl)cc1	0.3	log1/CED90 (W256): 2.82
CCOc1ccc(N(CCCl)CCCl)cc1	1.72	log K [1]: -3.38
O=Cc1ccc(N(CCCl)CCCl)cc1		log1/CED90 (W256): 2.93
Oc1ccc(N(CCCl)CCCl)cc1	1.75	log K [1]: -3.32
CCCCc1ccc(N(CCCl)CCCl)cc1	1.56	log K [1]: -3.61
NC(=O)Sc1ccc(N(CCCl)CCCl)cc1	0.9	
CSc1ccc(N(CCCl)CCCl)cc1	1.11	
CC(C)(C)c1ccc(N(CCCl)CCCl)cc1	1.46	
O=C(O)Cc1ccc(N(CCCl)CCCl)cc1		log K [1]: -3.99; log(1/C) (P388 [4]): 5.19; log(1/C) (P388 [5]): 4.87; log(1/C) (L1210): 4.79
CCOC(=O)c1cccc(N(CCCl)CCCl)c1	0.65	log K [1]: -4.59
CC(=O)Nc1ccc(N(CCBr)CCBr)cc1	1.93	log1/CED90 (W256): 5.04
ClCCN(CCCl)c1ccc(-c2ccccc2)cc1	1.08	
NS(=O)(=O)c1ccc(N(CCBr)CCBr)cc1	0.9	log1/CED90 (W256): 3.68; log(1/C) (L1210): 3.55
N#CSc1ccc(N(CCCl)CCCl)cc1	0.48	
N#CSc1ccc(N(CCBr)CCBr)cc1	1.28	
Sc1ccc(N(CCCl)CCCl)cc1	1.18	
O=C(O)c1ccc(N(CCI)CCI)cc1		log1/CED90 (W256): 3.26
Clc1ccc(N(CCBr)CCBr)cc1	1.82	

— ChEMBL document CHEMBL3244068 (J Med Chem, 1978)
